Laboratory results taken from patent publication US11254720B2, “Methods and systems for designing and/or characterizing soluble lipidated ligand agents” (Tufts Medical Center, priority 2013, dated 2022).

Test system: HEK293 cells transfected with vector control (pcDNA1.1)
Experiment: Luciferase reporter assay in cells transfected with vector control
Assay type: cell-based, human
Conditions: cells transfected with pcDNA1.1 vector control

Structure (SMILES): CCCCCCCCCCCCCCCC(=O)NCCOCCOCCOCCOCCOCCOCCOCCOCCC(=O)N[C@@H](CCCCN)C(=O)NCC(=O)NCC(=O)N[C@@H](Cc1ccc(O)cc1)C(=O)N[C@@H](Cc1ccccc1)C(=O)N1CCC[C@H]1C(=O)NCC(=O)N[C@@H](CCC(N)=O)C(=O)N[C@@H](Cc1ccccc1)C(=O)N[C@@H](C)C(=O)N[C@@H](Cc1ccccc1)C(=O)N[C@@H](CO)C(=O)O [I-Chem 149-157]
- Agonist activity without CMKLR1 expression: no agonist activity
